Amino acid sequences for entries named in this document (tags omitted).
UniProt P19784, whole entry: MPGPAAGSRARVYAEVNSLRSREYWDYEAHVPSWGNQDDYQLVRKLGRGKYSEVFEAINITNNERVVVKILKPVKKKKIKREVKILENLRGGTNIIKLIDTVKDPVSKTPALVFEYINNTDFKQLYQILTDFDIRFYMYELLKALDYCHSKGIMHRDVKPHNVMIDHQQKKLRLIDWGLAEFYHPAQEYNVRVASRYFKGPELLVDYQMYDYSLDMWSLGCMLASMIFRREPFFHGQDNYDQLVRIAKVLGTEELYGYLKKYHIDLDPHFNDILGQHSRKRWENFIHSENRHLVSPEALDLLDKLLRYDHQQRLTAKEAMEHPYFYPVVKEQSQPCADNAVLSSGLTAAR
UniProt P67870, whole entry: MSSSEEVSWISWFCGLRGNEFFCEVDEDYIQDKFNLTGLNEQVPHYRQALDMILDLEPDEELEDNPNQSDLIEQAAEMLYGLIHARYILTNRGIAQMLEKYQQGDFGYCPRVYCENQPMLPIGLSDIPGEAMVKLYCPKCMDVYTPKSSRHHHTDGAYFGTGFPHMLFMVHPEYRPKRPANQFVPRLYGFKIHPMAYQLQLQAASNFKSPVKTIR
UniProt P68400, whole entry: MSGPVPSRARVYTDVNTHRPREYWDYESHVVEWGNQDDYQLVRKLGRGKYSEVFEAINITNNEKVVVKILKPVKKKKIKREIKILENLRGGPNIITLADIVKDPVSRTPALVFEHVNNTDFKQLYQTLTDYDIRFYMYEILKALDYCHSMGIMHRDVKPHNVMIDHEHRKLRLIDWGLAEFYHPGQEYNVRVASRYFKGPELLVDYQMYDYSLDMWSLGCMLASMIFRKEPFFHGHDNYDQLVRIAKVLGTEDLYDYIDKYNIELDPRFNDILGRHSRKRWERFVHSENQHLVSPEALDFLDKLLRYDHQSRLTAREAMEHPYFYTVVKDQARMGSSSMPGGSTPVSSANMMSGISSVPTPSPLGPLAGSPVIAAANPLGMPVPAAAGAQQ

According to ChEMBL document CHEMBL1681725, “Novel potent pyrimido[4,5-c]quinoline inhibitors of protein kinase CK2: SAR and preliminary assessment of their analgesic and anti-viral properties” (Bioorg Med Chem Lett, 2011):

Biological target: Casein kinase II (Homo sapiens, UniProt P19784+P67870+P68400)
Assay: Inhibition of human recombinant CK2 by radiometric assay
Format: protein-complex assay

IC50, > 750 nM:
CN(C)c1ncc2c(n1)c(Nc1cccc(Cl)c1)nc1cc(C(=O)O)ccc12
CCOc1ncc2c(n1)c(Nc1cccc(C(F)(F)F)c1)nc1cc(C(=O)O)ccc12
NC(=O)c1ccc2c(c1)nc(Nc1cccc(C(F)(F)F)c1)c1nc(NC3CC3)ncc12
